{"source": "paper PMC3578765", "about": "(PLoS Neglected Tropical Diseases, 2013)", "key": {"[1]": {"test_system": "BR DEN2 01-01 infection of Huh-7.5", "assay": "assay validation with reference compounds, 10-pt DRC of percent infection", "type": "cell-based, Dengue virus", "settings": "percent infection normalized against DENV2-infected Huh-7.5, M.O.I. 0.5", "method": "An immunofluorescence assay (IFA) used to detect dengue infection was optimized for the dengue HT/HCA. Briefly, cells were fixed with 4% (w/v) paraformaldehyde (PFA) for 20 min at room temperature (Rm T). PFA-fixed cells were treated with 0.25% (v/v) Triton-X for 20 min at Rm T. DENV-infected cells were detected by probing with 4G2 mAb prepared in blocking buffer: DPBS containing 5% FBS for 30 min at 37°C, followed by AlexaFluor-conjugated goat anti-mouse IgG (H+L) (Invitrogen Molecular Probes, USA) prepared in blocking buffer for 30 min at 37°C. Cell nuclei counterstained with 5 µg/mL 4′,6-diamidino-2-phenylindole (DAPI, Sigma-Aldrich, USA). Two washing cycles of DPBS was done after each step of the IFA. After the final washing, digital images were acquired using a high-throughput confocal fluorescence imaging system (Evotec Technologies High-Throughput Cell Analyzer Opera, Perkin Elmer, USA). The digital images were taken from 3 different fields of each well at 20× magnification.\nAcquired images were analyzed using our in-house developed image-mining platform (IM). This platform is designed to do high-content screening and directly access the database of images that were sequentially analyzed with specially designed algorithms developed as a customized plug-in to the IM platform. The results of all the analyses were stored in a centralized database. […]"}, "Huh-7.5": {"test_system": "Huh-7.5", "assay": "assay validation with reference compounds, percent cell number in DENV2-infected Huh-7.5", "settings": "concentration at or above EC50, compared with MOCK-infected Huh-7.5", "method": "Acquired images were analyzed using our in-house developed image-mining platform (IM). This platform is designed to do high-content screening and directly access the database of images that were sequentially analyzed with specially designed algorithms developed as a customized plug-in to the IM platform. The results of all the analyses were stored in a centralized database. […] To define the percentage of dengue-infected cells and, conversely the non-infected cells, a modified watershed method was applied. […]\nIn both validation experiments, Huh-7.5 was mixed with DENV1, DENV2, DENV3 or DENV4 at a M.O.I. of 0.5 or VM only for MOCK-infection and dispensed in designated wells using the Thermo Scientific WellMate automated liquid dispenser. For the first validation experiment, the statistical reliability of the dengue HT/HCA was determined by calculating the Z'-factor for the percent infection or percent inhibition. Briefly, the Z'-factor of a defined parameter is calculated using the formula: 1−[(3σp+3σn)/(|μp−μn|)], where the μp, μn, σp and σn are the means (μ) and standard deviations (σ) of the positive (p) and negative (n) controls. […] Percent infection, percent inhibition, and percent cell number were determined using the customized IM platform plug-in. […]"}}}
{"substance": "IFNαA, Human: recombinant human Interferon-αA (IFN-α2A), Sigma-Aldrich, positive control", "values": [{"measurement": "IC50", "setting": "[1]", "result": 232.6, "unit": "U/mL"}, {"measurement": "cell number / cell toxicity at EC50", "setting": "Huh-7.5", "result": "higher cell numbers compared with MOCK-infected Huh-7.5"}]}
